{"sequences": {"note": "Sequences of proteins named here, by UniProt entry; tags and fusion partners are left off. Residues count along the entry.", "UniProt P06276, 29-602, species assumed": "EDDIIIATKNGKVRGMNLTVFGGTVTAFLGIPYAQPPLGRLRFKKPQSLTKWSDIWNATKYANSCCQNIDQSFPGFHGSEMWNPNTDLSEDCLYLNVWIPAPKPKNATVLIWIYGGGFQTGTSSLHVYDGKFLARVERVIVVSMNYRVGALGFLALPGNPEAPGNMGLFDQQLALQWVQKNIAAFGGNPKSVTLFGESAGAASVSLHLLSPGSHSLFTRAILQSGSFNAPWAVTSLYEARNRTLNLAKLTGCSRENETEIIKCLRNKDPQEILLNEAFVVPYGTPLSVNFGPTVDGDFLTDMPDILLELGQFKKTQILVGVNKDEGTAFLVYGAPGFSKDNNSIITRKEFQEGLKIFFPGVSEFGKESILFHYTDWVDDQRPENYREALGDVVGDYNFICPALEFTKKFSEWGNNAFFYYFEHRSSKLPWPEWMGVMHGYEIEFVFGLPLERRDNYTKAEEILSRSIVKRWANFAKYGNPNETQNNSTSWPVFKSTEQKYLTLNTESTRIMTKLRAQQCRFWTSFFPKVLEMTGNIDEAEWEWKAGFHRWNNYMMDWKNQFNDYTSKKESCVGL"}, "source": "paper PMC10077450", "about": "(ACS Omega, 2023)", "target": "butyryl cholinesterase (BChE) (Homo sapiens, UniProt P06276)", "experiment": "butyryl cholinesterase inhibition assay", "format": "biochemical", "conditions": "mean ± SEM, triplicate", "note": "Marks after values point to notes of the source that are not given here."}
{"smiles": "CNC(=O)Oc1ccc2c(c1)[C@]1(C)CCN(C)[C@@H]1N2C", "note": "[eserine, reference compound]", "values": [{"measurement": "BChE inhibition (%) at 0.5 mM", "value": "82.82±1.09^b %"}]}
